Measurements reported in paper PMC8899474, “Discovery and Characterization of the Key Constituents in Ginkgo biloba Leaf Extract With Potent Inhibitory Effects on Human UDP-Glucuronosyltransferase 1A1” (Frontiers in Pharmacology, 2022).

Target: T1, hUGT1A1 (Homo sapiens, UniProt P22309)
T1 sequence (P22309 26-533): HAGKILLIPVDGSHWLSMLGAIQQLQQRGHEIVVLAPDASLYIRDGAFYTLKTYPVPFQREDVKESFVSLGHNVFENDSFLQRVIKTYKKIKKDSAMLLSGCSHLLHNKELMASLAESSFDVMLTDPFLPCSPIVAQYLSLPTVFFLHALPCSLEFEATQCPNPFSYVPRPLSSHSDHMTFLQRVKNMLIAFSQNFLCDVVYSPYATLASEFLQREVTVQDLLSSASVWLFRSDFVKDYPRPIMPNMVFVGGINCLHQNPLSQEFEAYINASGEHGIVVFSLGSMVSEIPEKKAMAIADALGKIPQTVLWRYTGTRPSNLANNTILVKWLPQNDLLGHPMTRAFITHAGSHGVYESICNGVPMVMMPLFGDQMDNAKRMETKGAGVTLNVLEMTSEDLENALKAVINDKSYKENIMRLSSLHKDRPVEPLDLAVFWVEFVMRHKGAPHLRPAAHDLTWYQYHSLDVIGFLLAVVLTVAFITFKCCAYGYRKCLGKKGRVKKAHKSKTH
Experiment: UGT1A1 inhibition assay in living HeLa-UGT1A1 cells (NHPN-O-glucuronidation, LC-FD)
Type: cell-based
Parameters: expressed in transfected cells; host or cells: HeLa cells, stably transduced with lentivirus (HeLa-UGT1A1)
Settings: hUGT1A1-catalyzed NHPN-O-glucuronidation in HeLa-UGT1A1 cells
Procedure: A RF-20A FD detector coupled UFLC system (Shimadzu, Kyoto, Japan), equipped with a DGU-20A5R vacuum degasser, two LC-20ADXR pumps, a SIL-20ACXR autosampler and a CTO-20A column oven, was used to quantify NHPN and NHPNG. Chromatographic separation of analytes was carried out on a shim-pack Acchrom HC-C18 analytical column (2.0 × 150 mm, 4.6 μm particle size), while the column temperature was kept at 40°C. The flow rate was kept at 0.5 ml/min. The mobile phase consisted of acetonitrile (A) and water containing 0.2% formic acid (B). The gradient of the mobile phase was as follows: 0–0.5 min, 80–60% B; 0.5–3.5 min, 60–5% B; 3.5–5 min, 5% B; 5–7.5 min, equilibration with 80% B. The excitation wavelength and the emission wavelength were set at 370 and 520 nm, respectively for detection.
The inhibitory effects of herbal products and chemical constituents of GBL extract on UGT1A1 were investigated in living HeLa-UGT1A1 cells by using a specific fluorescent substrate, NHPN, as a probe. HeLa-UGT1A1 cells were cultured at 37°C in 5% CO2 in Modified Eagle’s Medium (MEM) containing 0.1% antibiotic-antimycoticmix, supplemented with 10% fetal bovine serum (FBS). HeLa-UGT1A1 cells were seeded in 96-well plates and cultured for 24 h. […]

Ginkgolide B gave an IC50 (read-out: IC50) of over 100 µM.
Substance Ginkgolide C has an IC50 of over 100 µM.

Where two headings read alike, the source gives them in different places.
